Experimental data reported in PubChem BioAssay (NCI).
“And” between values parts separate entries of the source, which are not always exact repeats. Equal entries are not always repeated.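 These data come from cells grown in 96-well plates and exposed to compound for 48 hours at five concentrations. GI50: concentration for 50% inhibition of growth. TGI: total growth inhibition.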

Assays:
Assay in all cases: NCI tumour cell line growth inhibition, 48 h
SF-539 CNS = test system: SF-539 CNS
P388/ADR leukemia = test system: P388/ADR leukemia
K-562 leukemia = test system: K-562 leukemia
CAKI-1 renal = test system: CAKI-1 renal
DMS 273 small cell lung = test system: DMS 273 small cell lung
SN12K1 renal = test system: SN12K1 renal
KM20L2 colon = test system: KM20L2 colon
MOLT-4 leukemia = test system: MOLT-4 leukemia
T-47D breast = test system: T-47D breast
DMS 114 small cell lung = test system: DMS 114 small cell lung
NCI-H226 lung = test system: NCI-H226 lung
HOP-92 NSCLC = test system: HOP-92 NSCLC
MALME-3M melanoma = test system: MALME-3M melanoma
P388 leukemia = test system: P388 leukemia
HCC-2998 colon = test system: HCC-2998 colon
RXF-631 renal = test system: RXF-631 renal
NCI-H460 lung = test system: NCI-H460 lung
DLD-1 colon = test system: DLD-1 colon
ACHN renal = test system: ACHN renal
HL-60(TB) leukemia = test system: HL-60(TB) leukemia
NCI-H23 lung = test system: NCI-H23 lung

SMILES: CN(CCCl)CCCl
- GI50 (SF-539 CNS): 1.44 µM [middle of 4 runs]
- TGI (SF-539 CNS): 7.09 µM [middle of 4 runs]
- GI50 (P388/ADR leukemia): 0.0571 µM
- TGI (P388/ADR leukemia): 2.67 µM
- GI50 (K-562 leukemia): 13.2 µM and 7.56 µM and 13.6 µM
- TGI (K-562 leukemia): 83.9 µM and 135 µM
- TGI (CAKI-1 renal): 1.24 µM and 6.57 µM and 11 µM
- GI50 (DMS 273 small cell lung): 0.432 µM
- TGI (DMS 273 small cell lung): 6.89 µM
- GI50 (SN12K1 renal): 3.82 µM
- TGI (SN12K1 renal): 26.8 µM
- GI50 (KM20L2 colon): 4.46 µM
- TGI (KM20L2 colon): 14.1 µM
- TGI (MOLT-4 leukemia): 3.48 µM and 9.28 µM and 2.76 µM
- TGI (T-47D breast): 8.38 µM [middle of 4 runs]
- GI50 (DMS 114 small cell lung): 2.26 µM
- TGI (DMS 114 small cell lung): 11.5 µM
- TGI (NCI-H226 lung): 42.3 µM [middle of 4 runs]
- TGI (HOP-92 NSCLC): 4.92 µM [middle of 4 runs]
- TGI (MALME-3M melanoma): 4.9 µM [middle of 4 runs]
- GI50 (P388 leukemia): 0.0547 µM
- TGI (P388 leukemia): 0.966 µM
- TGI (HCC-2998 colon): 14.1 µM [middle of 4 runs]
- GI50 (RXF-631 renal): 5.05 µM
- TGI (RXF-631 renal): 14 µM
- GI50 (NCI-H460 lung): 0.225 µM and 0.142 µM
- TGI (NCI-H460 lung): 2.49 µM and 2.51 µM and 5.27 µM
- GI50 (DLD-1 colon): 3.4 µM
- TGI (DLD-1 colon): 22.4 µM
- GI50 (ACHN renal): 0.349 µM and 0.399 µM and 0.216 µM
- TGI (ACHN renal): 7.99 µM and 5.18 µM and 7.92 µM
- TGI (HL-60(TB) leukemia): 1.94 µM and 4.58 µM and 1.53 µM
- TGI (NCI-H23 lung): 12 µM [middle of 4 runs]
